Values of other authors, collected in US20090069334A1, “Pyridazine based alpha-helix mimetics” (The Scripps Research Institute, priority 2007, published 2009).

Protein sequences, listed by entry. Tags and fused reporters are not part of them.
UniProt Q07817, whole entry, species assumed: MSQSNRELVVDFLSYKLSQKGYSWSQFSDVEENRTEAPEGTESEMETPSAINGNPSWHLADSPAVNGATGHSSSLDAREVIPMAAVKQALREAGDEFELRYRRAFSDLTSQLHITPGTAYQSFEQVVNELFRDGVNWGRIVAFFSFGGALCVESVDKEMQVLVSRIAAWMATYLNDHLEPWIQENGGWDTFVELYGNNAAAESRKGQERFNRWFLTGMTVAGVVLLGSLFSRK

Target: Bcl-xL (Homo sapiens, UniProt Q07817)
Conditions: 16 residue BH3 domain peptide from Bak (aa 72 to 87) bound to Bcl-xL

Kd: ~300 nM
Substance: 16 residue BH3 domain peptide from Bak: 16 residue BH3 domain peptide from Bak (aa 72 to 87) that binds in helical conformation to Bcl-xL
